Source: patent publication US8614245B2, “Crystalline (1r,4r)-6′-fluoro-N,N-dimethyl-4-phenyl-4′,9′-dihydro-3′H-spiro[cyclohexane-1,1′-pyrano[3,4,b]indol]-4-amine” (dated 2013)

Tests used:
[1] = stability of crystalline form L at ambient conditions; conditions: ambient conditions (RT, 40-60% r.h.)
[2] = solubility in solvents (approximate solubility determination); conditions: in saturated hydrocarbons (n-pentane, n-hexane, n-heptane) and water
[3] = storage of "crystalline form K" at different relative humidity or in vacuum (FT Raman, TG-FTIR, PXRD); conditions: for solid form after storage (FT Raman): two weeks at RT

SMILES: CN(C)[C@]1(c2ccccc2)CC[C@]2(CC1)OCCc1c3cc(F)ccc3[nH]c12
- stability of the solid form [1]: slowly reconverts into crystalline form B
- solubility [2]: only poorly soluble
- solid form after storage in vacuum (FT Raman, TG-FTIR, PXRD) ([3]; RT, vacuum 100 mbar): a new crystalline form (crystalline form L), a desolvated form
- water content (TG-FTIR) ([3]; after storage at 55% r.h.): 7.8%
- water content (TG-FTIR) ([3]; after storage at 97% r.h.): 9.0%
- solid form after storage (FT Raman) ([3]; 55% r.h. (saturated Mg(NO3)2)): a mixture of crystalline form B and “crystalline form K” was obtained
- solid form after storage (FT Raman) ([3]; 79% r.h. (saturated NH4Cl)): a mixture of crystalline form B and “crystalline form K” was obtained
- solid form after storage (FT Raman) ([3]; 97% r.h. (saturated K2SO4)): crystalline form B was obtained
